One test concerns the target T1, wild type MUP20 (Mus musculus, UniProt Q5FW60).
T1 construct: 6xHis (N); made in house; host or cells: E. coli BL21(DE3), pET5b
T1 sequence (Q5FW60 20-181): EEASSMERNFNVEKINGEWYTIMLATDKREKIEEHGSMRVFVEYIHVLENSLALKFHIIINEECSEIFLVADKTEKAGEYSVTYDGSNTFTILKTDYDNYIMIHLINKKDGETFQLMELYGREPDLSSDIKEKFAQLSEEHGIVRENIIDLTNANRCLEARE
In words: Fluorescence competitive binding assay with 1-NPN, wild type MUP20. To be noted: 1-NPN displacement, 50 mM Tris-HCl pH 7.4, 25 °C; read-out: Measured Kd, WT. The protocol: (§1) Fluorescence competitive binding assays: Fluorescence-competitive binding assays were carried out using the fluorescent probe N-phenyl-1-naphthylamine (1-NPN), as described[39],[40]. A binding curve was constructed and the dissociation constant of the probe (KD) was calculated.
(§2) The binding analyses assumed that the protein had 100% activity and that the stoichiometry of binding was 1:1 at saturation. The affinity of various volatile ligands was measured in competitive binding assays.
(§3) The change in fluorescence was recorded after adding increasing concentrations of ligand. Competitor concentrations causing a decay of fluorescence to half-maximal intensity were determined as IC50 and the dissociation constant for the test ligands (expressed as Kd) was calculated using the following formula:1 Kd=[IC50]/1+[Probe]/KD where [Probe] is the free concentration of the fluorescent probe and KD is the dissociation constant of the complex Protein/Probe.

Another test deals with T2, MUP20Y103R (Mus musculus, UniProt Q5FW60, Y103R).
T2 construct: 6xHis (N); made in house; host or cells: E. coli BL21(DE3), pET5b
T2 sequence (Q5FW60 20-181 Y103R): T1 sequence (Q5FW60 20-181) with Y84R
In words: Fluorescence competitive binding assay with 1-NPN, MUP20 Y103R. As to conditions: 1-NPN displacement, 50 mM Tris-HCl pH 7.4, 25 °C; read-out: Measured Kd, Y103R. The protocol: as §1, §2, §3

For a further test, the target named is T3, MUP20N107L (Mus musculus, UniProt Q5FW60, N107L).
T3 construct: 6xHis (N); made in house; host or cells: E. coli BL21(DE3), pET5b
T3 sequence (Q5FW60 20-181 N107L): T1 sequence (Q5FW60 20-181) with N88L
Nature of the test: Fluorescence competitive binding assay with 1-NPN, MUP20 N107L. As to conditions: 1-NPN displacement, 50 mM Tris-HCl pH 7.4, 25 °C; read-out: Measured Kd, N107L. As for the experimental part:
as §1, §2, §3

A further test deals with T4, MUP20Y103D (Mus musculus, UniProt Q5FW60, Y103D).
T4 construct: 6xHis (N); made in house; host or cells: E. coli BL21(DE3), pET5b
T4 sequence (Q5FW60 20-181 Y103D): T1 sequence (Q5FW60 20-181) with Y84D
Nature of the test: Fluorescence competitive binding assay with 1-NPN, MUP20 Y103D. To be noted: 1-NPN displacement, 50 mM Tris-HCl pH 7.4, 25 °C; read-out: Measured Kd, Y103D. The protocol:
as §1, §2, §3

Another test concerns the target T5, MUP20L124V (Mus musculus, UniProt Q5FW60, L124V).
T5 construct: 6xHis (N); made in house; host or cells: E. coli BL21(DE3), pET5b
T5 sequence (Q5FW60 20-181 L124V): T1 sequence (Q5FW60 20-181) with L105V
Nature of the test: Fluorescence competitive binding assay with 1-NPN, MUP20 L124V. As to conditions: 1-NPN displacement, 50 mM Tris-HCl pH 7.4, 25 °C; read-out: Measured Kd, L124V. As for the experimental part:
as §1, §2, §3

A word on the Kd: it is the equilibrium constant for the complex coming apart.

Residue numbers refer to the chain shown, from its start.

Consider L-Adrenaline, for which the Kd was determined as 5.31 µM on wild type MUP20; 7.06 µM on MUP20Y103R; 0.9 µM on MUP20N107L; 3.34 µM on MUP20Y103D; 1.33 µM on MUP20L124V.
